Tested on: Plasmodium vivax
Experiment: Radical cure efficacy: any P. vivax recurrence within 4 months in patients, pooled DETECTIVE part 1/2 and GATHER (logistic regression and Emax models)
Type: in vivo, human
Conditions: logistic regression; 95% CI 0.66–0.78
Text: The primary endpoint for the main efficacy analyses was any P. vivax recurrence within 4 months. We chose the binary endpoint of any recurrence rather than the time to first recurrence because tafenoquine has both asexual stage antimalarial activity ([Fukuda et al., 2017]) and hypnozoiticidal activity. […] The choice of a particular cut-off for follow-up is thus a trade-off between sensitivity and specificity. Longer follow-up will increase the sensitivity of the endpoint (include more relapses) but decrease specificity (include more reinfections).
For all predictors we fitted Bayesian mixed effects logistic regression models (random intercepts for study and study site), with adjustment for day 0 parasitaemia (log transformed). […]
For the mg/kg dose (the primary predictor of interest), the dose-response relationship was then assessed under a Bayesian Emax model, where the dose-dependent logit probability of recurrence is defined as: Emax(d,x)=α+βx+δd^k/d^k+γ^k, […]
In a priori sensitivity analyses, all recurrences up until 6 months were included as both binary and time to event outcomes. The time to first recurrence was defined as a P. vivax episode between day 7 and day 180 with right censoring at the last recorded visit. […]

## COc1cc(NC(C)CCCN)c2ncccc2c1 (stereo not shown) [primaquine]
  odds ratio for recurrence within 4 months per 0.7 mg/kg increase in the total primaquine dose: 0.72

From publication PMC9725750, “The clinical pharmacology of tafenoquine in the radical cure of Plasmodium vivax malaria: An individual patient data meta-analysis” (eLife, 2022)
